Amino acid sequences for entries named in this document (tags omitted). Residues count along the entry.
UniProt P37231, 234-505 limits assumed: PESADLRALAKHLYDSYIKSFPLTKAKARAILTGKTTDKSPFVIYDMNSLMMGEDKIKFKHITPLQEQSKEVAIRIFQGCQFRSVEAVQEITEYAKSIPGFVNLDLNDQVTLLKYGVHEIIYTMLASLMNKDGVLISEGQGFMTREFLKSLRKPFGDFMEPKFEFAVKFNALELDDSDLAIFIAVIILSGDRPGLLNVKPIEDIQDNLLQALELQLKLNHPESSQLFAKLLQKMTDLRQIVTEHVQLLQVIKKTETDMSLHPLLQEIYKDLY

According to patent US12606541B2, “PPARg modulators and methods of use” (Eisai R&D Management Co., Ltd., priority 2020, dated 2026):

Legend:
His6-TEV-PPARγ-(234-505) = His6-TEV-PPARγ-(234-505) (Homo sapiens, UniProt P37231); test: TR-FRET Assay to Measure Co-R Peptide Recruitment to PPARγ; details: read-out: TR-FRET i-Ag, Co-R peptide (SMRT-ID2) recruitment, top final concentration 20 μM
UM-UC-9 engineered cells = test: Cell proliferation / short-term viability assay, CellTiter-Glo 144 h; details: read-out: CTGlo 144 h UMUC9.5, G150
Method: Cell Seeding for Proliferation Assay
UM-UC-9 engineered cells were cultured in Dulbecco's Modified Eagle Medium (DMEM) supplemented with 10% FBS, 25 mM glucose (high glucose), 4.0 mM L-glutamine, 2.0 mM GlutaMAX™, 1.0 mM pyruvate, 1.0% non-essential amino acids (NEAA) in a 95% humidified incubator at 37° C. with 5% CO2. Cell banks of UM-UC-9 engineered assay-ready cells (ARCs) were prepared from a very active growth stage. Vials of ARCs containing approximately 5×10^6 cells per vial were stored in liquid nitrogen vapor phase cryostorage until use.
For making assay plates, ARCs were recovered from cryostorage, strained in a […] cell strainer, verified for cell viability >90% and counted using a cell counter (Cellometer Auto 1000, Nexelom). Each cell line was seeded into 384-well plates (50 μl/well) using DMEM medium at a density previously determined to be in log growth phase 7 days post-seeding (500 cells/well) using a bulk reagent dispenser (Multidrop™ Combi, Thermo Scientific) with a large-bore plastic-tip cassette pre-sanitized with 70% ethanol. One plate of cells was designated as the pretreatment time-zero (T0) control. Freshly seeded plates were allowed to sit lidded for 30 minutes within a biosafety cabinet for cells to settle distributed within the plate wells uniformly and then placed into an automated incubator (STX110, Liconic) at 37° C., 5% CO2, and 95% relative humidity.
Preparation of Test Compound in Assay-Ready Plate
Compounds were stored in a low-temperature sample archive as 10 mM dimethyl sulfoxide (DMSO) solutions at −20° C. under reduced humidity (−45° C. dew point) and protected from light. All samples in the automated archive are stored in 2D barcoded polypropylene tubes, tracked through a laboratory information management system (LIMS), and have been verified for identity and purity by NMR (Chemistry, H3 Biomedicine) and by LCMS (Analytical Chemistry, H3 Biomedicine) at the time of sample registration. Identity by mass matching and purity are again verified at the time of sample request fulfillment by redundant LCMS methods (acidic and basic separation protocols; Analytical Chemistry, H3 Biomedicine). Samples retrieved from low-temperature archive storage were solubilized by heated sonication (Bransonic® Ultrasonic Bath, Branson), transferred (Microlab Starlet, Hamilton) and serially-diluted (Viaflo Assist, Integra) by low-volume liquid handlers, and tracked in LIMS by automation log files to create a ID barcoded master dose-response plate (MDR) to serve as a standard source for all assay-ready plates (ARP) used within an experiment. ARPs prepared by acoustic transfer (ATS-100, EDC) of nL volumes from the MDR source were heat-sealed (PlateLoc, Agilent) and stored at −20° C. prior to use (<7 days from production). Tracking of liquid transfers via acoustic dispenser log files were used to update the LIMS system for all ARP plate maps.
Measurement of Pretreatment Control Cells and Sample Anti-Proliferative Effects on Treated Cells
On day 0 (pretreatment cells) or day 7 (treated cells), a cell proliferation assay was performed using an automated robotic assay platform (ACell, High-Res Biosolutions). Cell ARP's were removed from incubation, their plate lid discarded, and using a bulk reagent dispenser (Multidrop™ Combi, Thermo Scientific with a small-bore metal-tip cassette) 25 μL (1/2 volume) of Cell Titer-Glo® 2.0 Cell Viability Assay reagent (Promega) was added to wells of columns 1-23 (column 24 will be used as plate background or positive control). Cell ARP's were incubated at room temperature in an automation hotel position for a total of 1.0 minute while the next plate was delivered to the bulk reagent dispenser and then lid-free cell ARP's were returned to incubate at 37° C. for 2.5 hours. […]

| Compound | AC50 (His6-TEV-PPARγ-(234-505)) [nM] | IC50 (UM-UC-9 engineered cells) [nM] |
| --- | --- | --- |
| O=C(NCc1ncc(F)cc1Cl)C1CCN(C(=O)c2cc(-c3cc(C4CC4)ncc3F)[nH]n2)C2(CC2)C1 (single isomer, unassigned) [Example 480-B] | 18.1 | 206 |
| COc1cc(-c2cc(C(=O)N3CC[C@H](C(=O)NCC4Cn5c(nnc5C(F)(F)F)CO4)CC34CC4)n[nH]2)c(F)cn1 (single isomer, unassigned) [Example 357-B] | 62.5 | 1480 |
| CCO[C@]1(C(F)(F)F)CC[C@@H](NC(=O)C2CCN(C(=O)c3cc(-c4cc(C)ncc4F)[nH]n3)C3(CC3)C2)CC1 (single isomer, unassigned) [Example 323-B] | 6.7 | 2.3 |
| COc1cc(-c2cc(C(=O)N3CC[C@H](C(=O)NC4CCN(C5COC56CCC6)C4)CC34CC4)n[nH]2)c(F)cn1 (single isomer, unassigned) [Example 464-A] | 17.9 | 198 |
| COc1cc(-c2cc(C(=O)N3CC[C@H](C(=O)NC4CCC(N)(C(F)(F)F)CC4)CC34CC4)n[nH]2)c(F)cn1 (single isomer, unassigned) | 4.6 | 8.5 |
| COc1cc(-c2cc(C(=O)N3CC[C@H](C(=O)NCC4CCS(=N)(=O)C4(C)C)CC34CC4)n[nH]2)c(F)cn1 (single isomer, unassigned) [Example 372-F] | 846 | > 10000 |
| CC(O)c1cc(-c2cc(C(=O)N3CCC(C(=O)NCc4ncc(F)cc4Cl)CC34CC4)n[nH]2)c(F)cn1 (single isomer, unassigned) [Example 478-D] | 15300 | > 10000 |
| COc1cc(-c2cc(C(=O)N3CCC(C(=O)NC4CCC(C(F)(F)F)OC4)CC3)n[nH]2)c(Cl)cn1 (single isomer, unassigned) [Example 249-A] | 29.3 | 189 |
| Cc1cc(-c2cc(C(=O)N3CCC(C(=O)NC4CCC5(CC4)OCCC5(F)F)CC34CC4)n[nH]2)c(F)cn1 (single isomer, unassigned) [Example 405-D] | 48 | 99.5 |
| COc1cc(-c2cc(C(=O)N3CC[C@H](C(=O)NC4CCC(O)(C(F)(F)C(F)(F)F)CC4)CC34CC4)n[nH]2)c(F)cn1 (single isomer, unassigned) [Example 373-B] | 69.4 | 128 |
| COc1cc(-c2cc(C(=O)N3CCC(C(=O)N[C@H]4CC[C@@](OCCO)(C(F)(F)F)CC4)CC34CC4)n[nH]2)c(F)cn1 (single isomer, unassigned) [Example 330-A] | 103 | 71.7 |
| COc1cc(-c2cc(C(=O)N3[C@@H]4CC[C@H]3C[C@H](C(=O)NC3CCC(OC)(C(F)F)CC3)C4)n[nH]2)c(F)cn1 (single isomer, unassigned) [Example 302-B] | 80.9 | 270 |
| COc1cc(-c2cc(C(=O)N3[C@@H]4CC[C@H]3C[C@H](C(=O)NC3CCC5(CCC(=O)N5)CC3)C4)n[nH]2)c(F)cn1 (single isomer, unassigned) [Example 295-B] | 433 | > 4000 |
| COc1cc(-c2cc(C(=O)N3CC(C)C(C(=O)NCc4cccc(Cl)c4)CC3C)n[nH]2)c(Cl)cn1 (single isomer, unassigned) [Example 266-A] | 140 | 307 |
| COc1cc(-c2cc(C(=O)N3CCC(C(=O)NC4CCC5(CCC(=O)N5C)CC4)CC34CC4)n[nH]2)c(F)cn1 (single isomer, unassigned) [Example 327-B] | 15300 | > 4000 |
| Cc1cc(-c2cc(C(=O)N3CCC(C(=O)NC4CCC(O)(C(F)(F)F)CC4)CC3)n[nH]2)c(F)cn1 (single isomer, unassigned) [Example 263-A] | 90 | 382 |
| COc1cc(-c2cc(C(=O)N3CCC(C(=O)N[C@H]4CC[C@@](O)(C(F)(F)F)CC4)C[C@@H]3C(F)(F)F)n[nH]2)c(F)cn1 (single isomer, unassigned) [Example 368-B] | 298 | 705 |
| COc1cc(-c2cc(C(=O)N3CC[C@H](C(=O)NC(C)c4ncc(F)cc4Cl)CC34CC4)n[nH]2)c(F)cn1 (single isomer, unassigned) [Example 377-B] | 41.1 | 43.6 |
| COc1cc(-c2cc(C(=O)N3CC[C@H](C(=O)NC4CN(C)CCC4F)CC34CC4)n[nH]2)c(F)cn1 (single isomer, unassigned) [Example 422-B] | 38 | 165 |
| COc1cc(-c2cc(C(=O)N3CCC(C(=O)NC4CCC5(CCC(=O)N5C)CC4)CC34CC4)n[nH]2)c(F)cn1 (single isomer, unassigned) [Example 327-C] | 301 | 2110 |
| COc1cc(-c2cc(C(=O)N3CC[C@@H](C(=O)NC4CCC5(CC4)OCCC5(F)F)CC34CC4)n[nH]2)c(F)cn1 (single isomer, unassigned) [Example 370-B] | 34.7 | 49.3 |
| Cc1cc(-c2cc(C(=O)N3CCC(C(=O)NCc4ncc(F)cc4Cl)CC34CC4)n[nH]2)c(F)cn1 (single isomer, unassigned) [Example 385-B] | 5.8 | 10.7 |
| COc1cc(-c2cc(C(=O)N3CC[C@H](C(=O)NC4C(C)(C)C(N5CCC(F)(F)C5)C4(C)C)CC34CC4)n[nH]2)c(F)cn1 (single isomer, unassigned) | 192 | 326 |
| COc1cc(-c2cc(C(=O)N3[C@@H]4CC[C@H]3C[C@H](C(=O)NC3CCC(OC)(C(F)(F)F)CC3)C4)n[nH]2)c(Cl)cn1 (single isomer, unassigned) [Example 257-A] | 215 | 264 |
| COc1cc(-c2cc(C(=O)N3CC[C@H](C(=O)NC4CCC(C(F)(F)F)N(C)C4)CC34CC4)n[nH]2)c(F)cn1 (single isomer, unassigned) [Example 321-B] | 12.3 | 28.9 |
| COc1cc(-c2cc(C(=O)N3[C@@H]4CC[C@H]3C[C@H](C(=O)NC3CCC(OC)(C(F)(F)F)CC3)C4)n[nH]2)c(F)cn1 (single isomer, unassigned) [Example 294-B] | 106 | 236 |
| CCN1C(=O)CCC12CCC(NC(=O)C1CCN(C(=O)c3cc(-c4cc(OC)ncc4F)[nH]n3)C3(CC3)C1)CC2 (single isomer, unassigned) [Example 328-C] | 1240 | 1820 |
| Cc1cc(-c2cc(C(=O)N3CCC(C(=O)NC4CCC5(CC4)OCCC5(F)F)CC34CC4)n[nH]2)c(F)cn1 (single isomer, unassigned) [Example 405-A] | 353 | 731 |
| COc1cc(-c2cc(C(=O)N3CCC(C(=O)N[C@@H]4CCN(CC(F)(F)F)C4)CC34CC4)n[nH]2)c(F)cn1 (single isomer, unassigned) [Example 331-B] | 410 | 946 |
| COc1cc(-c2cc(C(=O)N3CC[C@H](C(=O)NC4CCCn5c(C)nnc54)CC34CC4)n[nH]2)c(F)cn1 (single isomer, unassigned) [Example 492-B] | 738 | > 10000 |
